In patent US6365173B1, “Stereocomplex polymeric carriers for drug delivery” (Efrat Biopolymers Ltd., priority 1999, dated 2002):

Test: HSA release from PLA stereocomplex precipitates in phosphate buffer
Format: physicochemical
Settings: precipitates with D-PLA/L-PLA or D-PLA (Mw=6,000) dispersed in phosphate buffer (pH 7.4) at 37° C.
Procedure: Human serum albumin (HSA, 100 mg) was stereocomplexed at 60° C. for 48 hours with a mixture of D-PLA (1 g, Mw=6,000) and L-PLA (1 g, Mw=6,000) or with D-PLA (2 g, Mw=6,000) or with DL-PLA in dioxane (50 ml). A precipitate was obtained for the D-PLA/L-PLA mixture and for the D-PLA solution while very little precipitate was detected for the DL-PLA solution. Accordingly, as determined by the Nynhidrin method for peptide and protein analysis, less than 5% of the HSA was detected in the acetonitrile solutions of the enantiomeric polymers, while most albumin was found in the acetonitrile solution of DL-PLA The precipitates were dispersed in phosphate buffer (pH 7.4) at 37° C. HAS was constantly released from the precipitates for 6 weeks.

## Human serum albumin [HAS]
  time over which HSA was constantly released from the precipitates: 6 weeks
